Measured values reported in PubChem BioAssay AID429 (Emory University Molecular Libraries Screening Center, 2006).
The list shows a part of the results, in another mix than the full data. Activity calls are given as the source filed them.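 The calls were made as follows: active = inhibition above 50%; inactive = the rest.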

Target: Heat shock protein HSP 90-alpha (Homo sapiens) (UniProt P07900)
Assay: Hsp90 geldanamycin-site probe displacement – cell lysate, fluorescence polarization, NCI-N417 lysate, primary screen (AID 429);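 also: 0% = tracer plus lysate wells and 100% = tracer alone without lysate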
Details: NCI-N417 lysate Hsp90, Cy3B-geldanamycin FP displacement; at 30 µM; hits give high values

| Structure (SMILES) | inhibition |
| --- | --- |
| COc1ccc(NC2CCN(CCc3ccccc3)CC2)c(OC)c1 | inactive: -1.09% |
| O=C(OC1CN2CCC1CC2)C1c2ccccc2Oc2ccccc21 (configuration not stated) | inactive: -2.98% |
| N#CC1(Nc2ccccc2)CCN(CCc2ccccc2)CC1 | inactive: -4.86% |
| N/C(=N\O)c1c(N)no[n+]1[O-] | inactive: -3.03% |
| CCC(CO)(C(=O)OC1CN2CCC1CC2)c1ccccc1 (configuration not stated) | inactive: -0.59% |
| CCOc1ncccc1C(=O)NCC1(N2CCOCC2)CCCCC1 | inactive: -3.64% |
| Fc1ccccc1NC1CCN(Cc2ccccc2)CC1 | inactive: -0.91% |
